Measurements published in US7674902B2, “Luminescent metal complexes for monitoring renal function” (priority 2004, dated 2010).

Assay: Biodistribution of radiolabelled DTPA complexes in normal rats, compared with 99mTc-DTPA positive control
Type: in vivo
Conditions: normal Sprague-Dawley rats; 111In-labelled complex
Method: Commercially available DTPA kit (Draximage Co., Ontario, Canada) was labeled with ^99mTc by the standard procedure described in the package insert that was supplied with the kit, and was administered to Sprague-Dawley rats (3 rats for each time point of 15 minutes, 60 minutes, 120 minutes, and 24 hours). The biodistribution data, shown in FIG. 7, serves as a positive control for determining whether the novel compounds of the present invention clear via glomerular filtration.
A mixture of the stock solution of DTPA-mono(7-amino-4-methylcoumarin)amide ligand (1 mg/mL in 0.5M sodium acetate buffer, 100 μL), obtained from Gunma University, Japan (Ozaki, et. al. Reference 30), sodium acetate solution (0.5M, 100 μL), and commercially available ^111InCl3 solution (0.1M HCl, 100-200 μCi/100 μL) was adjusted to pH 4.5 and incubated at ambient temperature for 30 minutes. The resulting indium complex was purified by reverse phase HPLC and administered to Sprague-Dawley rats. The biodistribution was carried out in the same manner as that of ^99mTc-DTPA in Example 1 (FIG. 8).

Substance: ^111In-DTPA-mono(coumarin amide) complex [Example 2]
- clearance through the kidneys: cleared substantially through the kidneys
- hepatobiliary clearance (relative to reference complex): slightly more hepatobiliary clearance than ^99mTc-DTPA
